pKd: −log10 of the molar value. Several values for one entry are separate records, joined by “and”; a condition that tells them apart may be missing. Equal entries are not always repeated.
Target: rat striatum adenosine A2A receptor (Rattus norvegicus, UniProt P30543)
Experiment: adenosine A2A receptor ligand binding test ([3H]MSX-2)

Protein sequences, listed by entry. Tags and fused reporters are not part of them. Lines headed by an entry give the natural chain unless they say otherwise; changes in a name come on top.
UniProt P30543, whole entry: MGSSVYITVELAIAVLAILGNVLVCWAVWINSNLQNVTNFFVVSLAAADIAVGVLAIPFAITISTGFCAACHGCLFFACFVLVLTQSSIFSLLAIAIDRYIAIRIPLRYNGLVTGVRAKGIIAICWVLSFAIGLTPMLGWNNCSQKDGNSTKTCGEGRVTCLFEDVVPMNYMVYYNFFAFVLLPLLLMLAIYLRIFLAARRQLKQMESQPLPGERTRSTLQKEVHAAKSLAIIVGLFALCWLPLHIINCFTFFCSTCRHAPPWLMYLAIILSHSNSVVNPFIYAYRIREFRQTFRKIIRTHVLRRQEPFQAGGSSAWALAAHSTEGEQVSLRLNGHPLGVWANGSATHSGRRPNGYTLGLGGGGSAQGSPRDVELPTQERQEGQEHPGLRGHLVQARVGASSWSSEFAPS

`C#CCn1c(=O)c2c(nc(/C=C/c3cccc(OC)c3)n2C)n(CCCO)c1=O` was tested. Which pKd (read-out: equilibrium dissociation constant Kd of A2A binding, saturation curve, Scatchard, tested as the radiolabelled form) did it give?
The pKd was 7.96 and 7.94.

What about the “Bmax of A2A binding” value (saturation curve, Scatchard, tested as the radiolabelled form) of the same compound?
The value was 5235 fmol/mg and 5657 fmol/mg.
